Only a part is listed here, and it is no random draw. The source made the active and inactive calls. Rule as the data show it: active = inhibition above about 25% (passing the limit was not always enough); inactive = the rest.

The values below come from PubChem BioAssay AID485350 (ICCB-Longwood Screening Facility, Harvard Medical School, 2010).

This test deals with BasE (2,3-dihydroxybenzoate-AMP ligase), Acinetobacter baumannii ATCC 17978. Put plainly: BasE siderophore enzyme inhibitors, primary screen, biochemical, Acinetobacter baumannii ATCC 17978, fluorescence polarization (AID 485350).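 Also: 0% = negative plate control signal and 100% = positive plate control signal.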 Conditions: purified BasE, fluorescence polarization binding displacement; stronger effect = higher value; concentration not given here.
Broadly, the inhibition is the change of the read-out against control, counted positive when it falls. Turning to `CN(CCCl)CCCl`, the inhibition is inactive: -1.68%.
